# Laboratory results published in PubChem BioAssay AID719 (SRMLSC, 2007).
# Only a part is listed here, and it is no random draw. Some results for these compounds are left out of this collection, so the calls shown say nothing about other tests. Active and inactive are the calls of the source.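 The calls were made as follows: active = viability at or below 50% in the single dose screen; inactive = viability above 50%.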
# Experiment: antiproliferative effect on LL 47 fibroblasts – human, LL 47 cells, CellTiter-Glo luminescence, primary screen (AID 719);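 also: compound exposure lasted 72 h before the ATP readout; 100% = median luminescence of untreated cell-only wells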
# Details: LL 47 human lung fibroblast viability, ATP luminescence; at 10 µM; stronger effect = lower value
# In short: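 Material: Human LL 47 lung fibroblast cells | Input: 1,150 cells/well | Buffer or medium: IMEM plus 15% FBS | Compound dosing: 0.1% DMSO in all compound wells | Times: Overnight cell rest, 72 h compound treatment at 37 °C | Signal: CellTiter-Glo luminescence measuring cellular ATP | Measure: % viability versus median cells-only luminescence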
row,Structure (SMILES),viability
1,CN(C)c1cccc(C(=O)NCC2(N(C)C)CCCCC2)c1,inactive: 101%
2,O=C(OC1CN2CCC1CC2)C(CO)(c1ccccc1)c1ccccc1 (configuration not stated),inactive: 95.3%
